This data set has as its system A2780 (human). The data set is described as follows: Selectivity index, ratio of IC50 for SV-40 immortalized human ovarian epithelial cells to IC50 for human A2780 cells.

On to `CC1=CC(=O)C(C(C)C)=CC1=O` [THYMOQUINONE], for which the selectivity ratio is 2.3.

For the origin of these results see ChEMBL document CHEMBL4184306, “The synthesis and evaluation of thymoquinone analogues as anti-ovarian cancer and antimalarial agents” (Bioorg Med Chem Lett, 2018).
